AlphaSeq binding of Ab-14 heavy chain variants to a spike HR2 peptide

Binding partner: SARS-CoV-2 spike HR2 peptide, sequence PDVDLGDISGINAS.

The variants keep the light chain, the linker and the frameworks of Ab-14 (scFv order VH, a (GGGGS)3 linker, VL).
VH: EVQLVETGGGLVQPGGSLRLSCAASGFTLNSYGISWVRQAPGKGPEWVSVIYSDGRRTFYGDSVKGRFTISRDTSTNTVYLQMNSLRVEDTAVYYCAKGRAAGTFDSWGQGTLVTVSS
VL: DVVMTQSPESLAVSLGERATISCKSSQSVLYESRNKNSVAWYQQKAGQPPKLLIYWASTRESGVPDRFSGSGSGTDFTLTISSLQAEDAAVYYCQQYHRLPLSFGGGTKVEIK

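The starting antibody came from a phage panning campaign against this peptide. These sequences belong to a second round, designed from the earlier measurements on random variants of the parent. Their group label is 14H_GPLM_Gen (GPLM: also part of the Gaussian process libraries; Gen: genetic algorithm; a sequence that several methods proposed may carry one label only). Affinity was read by AlphaSeq, a pooled yeast mating assay with surface-displayed partners. Pairs that bind mate more often; barcode pairs of the diploids are counted by sequencing. The ratio of observed to expected reads was calibrated, replicate by replicate, on BCL2-family standards whose Kd was known from biolayer interferometry. Each pool was mated in six replicate cultures.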

The parent's heavy chain CDRs are GFTLNSYGIS, VIYSDGRRTFYGDSVK, GRAAGTFDS; each variant's own CDRs replace them letter for letter. Affinities are written as log10 Kd with Kd in nM; a lower number is a better binder. Where no diploid with the target was found in that replicate, the entry reads "nd": below detection, most likely a poor binder, though not proof of it. The range of this assay differs from that of the first round, and the authors advise against merging the two. In the paper, a design with two or fewer of six values counts as a poor binder. The parent sequence was in this pool as ten entries: three were never detected, three once, and four in most replicates, with averages from 0.34 to 2.37. Nonspecific signal, from three strains lacking the peptide, appeared in 1% of pairings of all heavy chain designs, centred on 2.08 (5% of these signals below 0.84); values are not corrected for it. The control count says in how many pairings with the empty strains this scFv gave a signal.

GFSLNNYGIS | VIYSDGRRTFYGDSVK | GNAAGTFDS: 0.21, 0.16, 0.02, 0.21, -0.27, -0.19 (controls 0 of 18).
GFSLNSYGIS | VIYSDGRRTFYADSVK | GHAAGTFDK: 0.63, 0.73, -0.04, 0.45, 0.85, 0.71 (controls 2 of 18).
GFDLNSYGIS | VIYSDGRRTFYTDSVK | GQAAGTFDS: 0.50, 0.32, 0.17, 0.13, 0.02, 0.25 (controls 0 of 18).
GFDLNEYGIS | VIYSDGRRTFYSDSVK | GKAAGTFDS: 0.59, 0.26, 0.98, 0.49, 0.04, 0.98 (controls 0 of 18).
GFTLDSYGIS | VIYSDGRRTFYGDSVK | GREAGTFDT: 0.06, 0.79, 0.69, -0.03, 0.36, 0.28 (controls 0 of 18).
GFTLESYGIS | VIYADGRRTFYGDSVK | GEAAGTFDS: 0.23, 0.52, -0.02, -0.14, 0.46, 0.49 (controls 0 of 18).
GFSLNDYGIS | VIYSDGRRTFYGDSVK | GRTAGTFDR: 0.93, 0.03, 0.29, 0.10, -0.10, 0.74 (controls 0 of 18).
GFVLNSYGIS | VIYADGRRTFYGDSVK | GRAAGTFDS: 0.05, 0.05, 0.03, 0.25, -0.13, 0.15 (controls 2 of 18).
GFELNSYGIS | VIYSDGRRTFYTDSVK | GEAAGTFDS: 0.58, nd, -0.50, 0.31, -0.10, -0.34 (controls 0 of 18).
GFSLNSYGIS | VIYSDGYRTFYGDSVK | GRTAGTFDS: nd, 0.86, 1.47, 0.99, 1.24, 1.23 (controls 1 of 18).
GFSLNSYGIS | VIYSDGRRTFYQDSVK | GTAAGTFDS: 0.13, 0.66, 0.03, 0.25, -0.04, 0.18 (controls 0 of 18).
GFTLNSYGIS | VIYADGRRTFYGDSVK | GQAAGTFDN: -0.34, 0.35, 0.22, 0.99, 0.78, 1.20 (controls 0 of 18).
GFSLNNYGIS | VIYSDGRRTFYSDSVK | GRTAGTFDS: -0.23, -0.42, -0.25, -0.27, -0.42, 0.00 (controls 1 of 18).
GFHLNSYGIS | VIYSDGRRTFYDDSVK | GQTAGTFDS: 0.81, 0.56, 0.29, 0.30, 0.42, 1.01 (controls 1 of 18).
GFSLNEYGIS | VIYSDGRRTFYGDSVK | GKAAGTFDV: 0.48, -0.14, -0.17, -0.57, -0.31, 0.14 (controls 0 of 18).
GFSLNSYGIS | VIYSDGRRTFYADSVK | GNAAGTFDA: 0.27, 0.25, 0.18, 0.43, 0.31, 0.46 (controls 1 of 18).
GFSLNSYGIS | VIYSDGRRTFYGDSVK | GRTAGTFDT: 0.17, -0.06, 1.14, -0.53, 0.68, -0.34 (controls 0 of 18).
GFQLNSYGIS | VIYADGRRTFYGDSVK | GRAAGTFDS: 0.72, 0.91, -0.26, 0.06, 0.30, 0.10 (controls 0 of 18).
GFSLNTYGIS | VIYSDGRRTFYGDSVK | GRVAGTFDS: nd, 1.35, nd, 2.15, 2.27, 1.15 (controls 0 of 18).
GFTLNSYGIS | VIYADGRRTFYGDSVK | GKAAGTFDT: 0.39, -0.15, -0.12, 0.01, -0.27, -0.04 (controls 0 of 18).
GFELNSYGIS | VIYSDGRRTFYGDQVK | GRTAGTFDS: 1.39, 1.35, 0.63, 0.81, 1.47, 0.79 (controls 0 of 18).
GFSLNEYGIS | VIYSDGRRTFYGESVK | GRAAGTFDS: 0.70, 0.15, 0.18, -0.02, 0.20, -0.02 (controls 0 of 18).
GFSLNSYGIS | VIYSDGRRTFYADSVK | GRQAGTFDS: 0.24, -0.17, 0.02, -0.26, 0.12, 0.00 (controls 0 of 18).
GFKLNSYGIS | VIYSDGRRTFYADSVK | GRQAGTFDS: 0.64, 0.70, 1.44, 1.01, 0.36, 0.48 (controls 1 of 18).
GFTLNDYGIS | VIYSDGRRTFYGDSVK | GRTAGTFWS: nd, nd, nd, nd, nd, 2.43 (controls 0 of 18).
GFTLNEYGIS | VIYSDGRRTMYGDSVK | GRQAGTFDS: 0.19, 0.38, -0.15, 0.20, -0.58, 0.31 (controls 0 of 18).
GFTLNSYGIS | VIYSDGRRTFYTDSVK | GNAAGTFDS: 1.09, 1.02, 0.97, 0.79, 1.33, 1.06 (controls 0 of 18).
GFHLNSYGIS | VIYSDGRRTFYHDSVK | GRTAGTFDS: 2.02, nd, 2.06, nd, 1.75, 1.23 (controls 1 of 18).
GFVLNSYGIS | VIYSDGRRTFYADSVK | GREAGTFDS: 0.56, 0.12, 0.16, 0.52, 0.16, 0.31 (controls 1 of 18).
GFDLNSYGIS | VIYSDGRRTFYGDSVK | GKRAGTFDS: 0.69, 0.74, 1.29, 1.09, 0.94, 1.38 (controls 0 of 18).
GFTINSYGIS | VIYSDGRRTFYSDSVK | GEAAGTFDS: nd, nd, nd, nd, nd, nd (controls 2 of 18).
GFSLNNYGIS | VIYSDGRRTFYSDSVK | GRAAGTFDS: 0.93, 0.24, 1.47, 0.60, 0.63, 0.49 (controls 1 of 18).
GFSLNEYGIS | VIYSDGRRTFYGDSVK | GRIAGTFDT: -0.18, -0.42, -0.32, -0.03, -0.46, 0.32 (controls 0 of 18).
GFSLNSYGIS | VIYSDGKRTFYGDSVK | GKAAGTFDS: 1.53, 0.82, 0.40, 0.24, 0.65, 0.89 (controls 0 of 18).
GFQLNSYGIS | VIYSDGRRTFYIDSVK | GQAAGTFDS: 1.65, 2.61, 1.11, 0.84, nd, nd (controls 0 of 18).
GFSLNDYGIS | VIYSDGRRTFYGDAVK | GRTAGTFDS: 0.38, 0.17, 0.28, -0.04, 0.19, 0.10 (controls 2 of 18).
GFELNSYGIS | VIYSDGRRTFYADSVK | GQAAGTFDL: nd, nd, nd, nd, nd, nd (controls 0 of 18).
GFTLNDYGIS | VIYSDGRRTFYSDSVK | GREAGTFDS: -0.28, -0.19, -0.54, -0.29, -0.27, -0.23 (controls 0 of 18).
GFTLNDYGIS | VIYSDGRRTFYGDSVK | GQAAGTFDK: 1.22, 0.35, 1.93, 1.29, 0.61, 0.55 (controls 2 of 18).
GFSLNSYGIS | VIYSDGRRTFYADQVK | GNAAGTFDS: 0.29, 0.08, 0.16, 0.08, -0.22, 0.37 (controls 2 of 18).
GKTLNSYGIS | VIYADGRRTFYGDSVK | GRTAGTFDS: nd, 1.46, nd, nd, nd, nd (controls 0 of 18).
GFNLNSYGIS | VIYSDGRRTFYSDSVK | GRTAGTFDS: -0.04, 0.23, 0.19, -0.42, -0.07, 0.67 (controls 0 of 18).
GFQLNDYGIS | VIYSDGRRTFYADSVK | GRAAGTFDS: 0.13, 0.59, -0.12, 0.09, 0.98, 0.60 (controls 0 of 18).
GFNLNSYGIS | VIYSDGRRTFYTDSVK | GRTAGTFDS: 0.41, 0.16, 0.27, -0.22, 0.03, 0.48 (controls 1 of 18).
GFSLNSYGIS | VIYSDGRRTFYHDSVK | GRTAGTFDT: 0.99, 0.23, 0.84, 0.08, 0.12, 1.22 (controls 0 of 18).
GFLLNDYGIS | VIYSDGRRTFYADSVK | GRTAGTFDS: 1.70, 0.91, 0.96, 1.98, 2.34, 1.60 (controls 0 of 18).
GFWLNSYGIS | VIYSDGRRTFYADSVK | GRVAGTFDS: nd, nd, 0.36, 0.11, 1.10, nd (controls 0 of 18).
KFSLNSYGIS | VIYSDGRRTFYADSVK | GEAAGTFDS: 0.69, 0.70, 1.03, 0.65, 0.73, 0.70 (controls 0 of 18).
GFSLNEYGIS | VIYSDGRRTFYVDSVK | GRTAGTFDS: 0.44, 0.00, -0.40, 0.36, -0.12, 0.56 (controls 0 of 18).

Extract of 5 entries:

| CDR-H1 | CDR-H2 | CDR-H3 | replicates, log10 nM | empty controls |
|---|---|---|---|---|
| GFSLNTYGIS | VIYSDGRRTFYGDSVK | GRVAGTFDS | nd, 1.35, nd, 2.15, 2.27, 1.15 | 0 of 18 |
| GFTLNDYGIS | VIYSDGRRTFYGDSVK | GRTAGTFWS | nd, nd, nd, nd, nd, 2.43 | 0 of 18 |
| GFDLNSYGIS | VIYSDGRRTFYGDSVK | GKRAGTFDS | 0.69, 0.74, 1.29, 1.09, 0.94, 1.38 | 0 of 18 |
| GFSLNSYGIS | VIYSDGRRTFYADSVK | GRQAGTFDS | 0.24, -0.17, 0.02, -0.26, 0.12, 0.00 | 0 of 18 |
| GFNLNSYGIS | VIYSDGRRTFYSDSVK | GRTAGTFDS | -0.04, 0.23, 0.19, -0.42, -0.07, 0.67 | 0 of 18 |

Source: Li et al. 2023 (doi:10.1038/s41467-023-39022-2), MIT Lincoln Laboratory and A-Alpha Bio; data file from the FLAb repository.